Experimental data from PubChem BioAssay AID2462 (Broad Institute, 2010).
This is a selection; strong and weak results do not stand in their true shares. Some results for these compounds are left out of this collection, so the calls shown say nothing about other tests. The source made the active and inactive calls.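 Rule for the calls: active = over half of replicate activation scores above 10%, or exactly half above 10 with the replicate mean above 10; inconclusive = replicate mean below 10 yet half the replicates above 10; inactive = over half of replicates below 10.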

Assay: inducers of caspase signal in A1-primed MEFs – cell-based, luminescence, HTS, A1 inhibitor project, primary screen (AID 2462)
Details: MEF A1-2A-BIM cells, Caspase-Glo 3/7 luminescence, 3 h; stronger effect = higher value; percent of clofoctol response, vehicle zero; concentration not given here

SMILES | caspase activation
O=C(OC1CN2CCC1CC2)C(CO)(c1ccccc1)c1ccccc1 (centres undefined) | inactive: -0.185%
COc1ccc(Br)c(C(=O)NCC2(N3CCCCC3)CCCCC2)c1 | inactive: 0.738%
CC(C)Oc1ccc(C(=O)NCC2(N(C)C)CCCCC2)cc1 | inactive: -0.873%
CN(C)c1cccc(C(=O)NCC2(N(C)C)CCCCC2)c1 | inactive: -0.444%
CN(C)C1(CNC(=O)c2ccc(Br)cc2)CCCCC1 | inactive: 0.31%
COc1cc(C(=O)NCC2(N(C)C)CCCCC2)c([N+](=O)[O-])cc1OC | inactive: 0.714%
COc1cccc(C(=O)NCC2(N3CCCCC3)CCCCC2)c1 | inactive: 0.0942%
COc1ccc(Cl)cc1C(=O)NCC1(N(C)C)CCCCC1 | inactive: -0.0789%
O=C(NCC1(N2CCCCC2)CCCCC1)c1cccc(Cl)c1 | inactive: 0.0949%
Cc1ccccc1C(=O)NCC1(N2CCCCC2)CCCCC1 | inactive: 0.79%
CN(C)C1CCCC1OC(=O)C(O)(c1ccccc1)c1ccccc1 (centres undefined) | inactive: 0.385%
CN(C)c1ccc(C(=O)NCC2(N(C)C)CCCCC2)cc1 | inactive: -0.0664%
C=CCN1CCN(CCOC(=O)C(O)(c2ccccc2)c2ccccc2)CC1 | inactive: 0.457%
O=C(NCC1(N2CCCCC2)CCCCC1)c1cc(F)c(F)cc1Cl | inactive: -0.366%
COc1ccc(C(=O)NCC2(N(C)C)CCCCC2)cc1 | inactive: 0.479%
Cc1cc(C(=O)NCC2(N3CCCCC3)CCCCC2)ccc1[N+](=O)[O-] | inactive: -0.579%
CCN1CCCC(OC(=O)C2(O)c3ccccc3C=Cc3ccccc32)C1 (centres undefined) | inactive: 0.453%
O=C(NCC1(N2CCCCC2)CCCCC1)c1cccc(Br)c1 | inactive: 0.197%
O=C(NCC1(N2CCCCC2)CCCCC1)c1cc([N+](=O)[O-])ccc1Cl | inactive: 0.41%
CN1[C@@H]2CC[C@H]1CC(OC(=O)C(O)(c1ccccc1)c1ccccc1)C2 (some centres undefined) | inactive: -0.267%
CCN(CC)CC(C)C(C)OC(=O)C(O)(c1ccccc1)c1ccccc1 (centres undefined) | inactive: -0.213%
COc1cc(SC)ccc1C(=O)NCC1(N(C)C)CCCCC1 | inactive: 0.679%
CC(C)N1C(=O)CC2(CCN(CCOC(=O)C(O)(c3ccccc3)c3ccccc3)CC2)C1=O | inactive: 0.0707%
Cc1ccc(C(=O)NCC2(N3CCCCC3)CCCCC2)cc1 | inactive: -0.226%
